The record followed here is patent US11819556B2, “Stabilized compositions of radionuclides and uses thereof” (RayzeBio, Inc., priority 2021, dated 2023).

SMILES strings stand for the structures.

For the data set the following is noted: 0 hour after mixing; 0.03 mCi/ml, excipient 1 mg/ml in sodium acetate-acetic acid buffer pH 5.80, 25° C.
Regarding `O=C(O)CCCC[C@@H]1CCSS1` (racemic) [Lipoic Acid], the “Percentage of ^225Ac present in [^225Ac]Ac-DOTA-TATE” value (shortened to “Percentage of ^225Ac present”) is 98.61%.

As for `O=C(O)CC(O)(CC(=O)O)C(=O)O` [Citric Acid], the “Percentage of ^225Ac present” value was determined as 99.42%.

`N[C@H](CS)C(=O)O` [D-Cysteine]: the “Percentage of ^225Ac present” value was 98.61%.

Turning to `NCCCC[C@H](N)C(=O)O` [L-Lysine], the “Percentage of ^225Ac present” value worked out at 99.42%.

For `CC(=O)N[C@@H](CS)C(=O)O` [N-Acetyl-L-Cysteine], the “Percentage of ^225Ac present” value was 99.42%.

Consider `O=S([O-])O.[Na+]` [Sodium Bisulfite], for which the “Percentage of ^225Ac present” value is on record as 98.61%.
